The target of assay [1] is T1, hERG channels (Homo sapiens, UniProt Q12809). The assay can be described thus: Automated patch clamp, IKr Pharm (Roche in-house) protocol, CHO cells. For orientation: In patch-clamp work, channel activity is measured electrically.
In assay [2] the target is T1, hERG channels. The assay can be described thus: Automated patch clamp, IKr CiPA protocol, CHO cells.

The chains behind the UniProt entries cited, without tags or fusion partners. Where a name states a change or a piece, a line headed by the entry shows the natural chain unless it says otherwise.
UniProt Q12809: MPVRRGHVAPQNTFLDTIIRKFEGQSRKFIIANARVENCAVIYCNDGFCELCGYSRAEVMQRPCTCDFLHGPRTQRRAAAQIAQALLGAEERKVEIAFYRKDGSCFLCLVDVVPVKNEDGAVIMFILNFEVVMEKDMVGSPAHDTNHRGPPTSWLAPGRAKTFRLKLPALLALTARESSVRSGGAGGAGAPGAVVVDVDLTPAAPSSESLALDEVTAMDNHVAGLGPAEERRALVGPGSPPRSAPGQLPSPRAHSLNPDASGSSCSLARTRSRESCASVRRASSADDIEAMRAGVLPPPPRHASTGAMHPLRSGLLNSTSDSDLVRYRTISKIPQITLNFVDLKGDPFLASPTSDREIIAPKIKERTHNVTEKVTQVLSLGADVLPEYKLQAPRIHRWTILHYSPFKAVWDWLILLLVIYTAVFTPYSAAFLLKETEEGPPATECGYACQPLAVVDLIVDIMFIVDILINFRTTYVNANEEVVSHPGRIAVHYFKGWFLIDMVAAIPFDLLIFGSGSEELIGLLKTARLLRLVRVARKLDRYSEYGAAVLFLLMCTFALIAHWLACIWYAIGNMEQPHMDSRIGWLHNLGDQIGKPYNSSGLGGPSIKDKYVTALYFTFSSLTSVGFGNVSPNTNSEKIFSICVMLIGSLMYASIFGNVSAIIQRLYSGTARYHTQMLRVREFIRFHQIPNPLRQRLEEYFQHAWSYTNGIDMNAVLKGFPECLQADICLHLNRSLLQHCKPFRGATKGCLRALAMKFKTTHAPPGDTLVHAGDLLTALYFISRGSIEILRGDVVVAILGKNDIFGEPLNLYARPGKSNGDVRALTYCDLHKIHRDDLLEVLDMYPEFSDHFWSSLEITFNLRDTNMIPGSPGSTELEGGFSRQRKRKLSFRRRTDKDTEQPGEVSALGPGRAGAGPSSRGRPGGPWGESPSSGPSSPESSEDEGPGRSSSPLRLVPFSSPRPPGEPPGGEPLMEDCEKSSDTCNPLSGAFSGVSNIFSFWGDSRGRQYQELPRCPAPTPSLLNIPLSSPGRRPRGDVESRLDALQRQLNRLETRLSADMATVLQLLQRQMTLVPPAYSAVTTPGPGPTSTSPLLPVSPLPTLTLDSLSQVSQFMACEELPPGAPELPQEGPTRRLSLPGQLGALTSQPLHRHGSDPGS

We go through one molecule from publication PMC12251226, “Comparison of in silico predictions of action potential duration in response to inhibition of IKr and ICaL with new human ex vivo recordings” (PLOS Computational Biology, 2025).

As usually defined, the IC50 is the concentration that inhibits the measured activity by half. Read a low IC50 as greater potency in that assay. For the molecule `CN1CCCCC1CCN1c2ccccc2Sc2ccc([S+](C)[O-])cc21` (centres unmarked) [Mesoridazine], the half-maximal inhibitory concentration (IC50) was determined as 0.503 µM at hERG channels [1] and 0.565 µM at hERG channels [2].
